Data set [1] has as its system M. bovis BCG-GFP infected human primary monocyte-derived macrophages. It is filed as cell-based.
Data set [2] relates to Human primary monocyte-derived macrophages infected with M. bovis BCG-GFP. It is filed as cell-based.
The subject of data set [3] is Human primary monocyte derived macrophages. The following applies: 10µM, four hours.
The subject of data set [4] is infected human primary macrophages. The following applies: 10 µM; for acidity of lysosomes (Lysotracker red intensity): over time.

Regarding `O=C(CCCN1CCC(O)(c2ccc(Cl)cc2)CC1)c1ccc(F)cc1` [Haloperidol, 4-[4-(4-chlorophenyl)-4-hydroxy-1-piperidyl]-1-(4-fluorophenyl)-butan-1-one], the mycobacteria within autophagosomes entry in data set [1] is on record as “did not show this effect”. Further, in data set [2], the “co-localization of mycobacteria and LBPA over time” value was “increased with time”; the “localization of EEA1 to mycobacterial phagosomes” value (shortened to “localization of EEA1”) is given as “small, but significant, localization of EEA1 to mycobacterial phagosomes”.

Consider `CNCCC=C1c2ccccc2CCc2ccccc21` [Nortriptyline, 3-(10,11-dihydro-5H-dibenzo[a,d]cyclohepten-5-ylidene)-N-methyl-1-propanamine], for which, in data set [3], the “number and integral intensity of LC3 vesicles” value was “increase in both number and integral intensity of LC3 vesicles”; the “toxicity to cells (total cell numbers)” value is given as “not toxic to cells”. In addition, the “acidity of lysosomes (Lysotracker red intensity)” value (from here on “acidity of lysosomes”) in data set [4] is listed as “enhance the acidity of lysosomes”. Further, in data set [1], the mycobacteria within autophagosomes entry is “presence of mycobacteria within autophagosomes” and the “mycobacteria within autophagosomes in the presence of 3-MA” value is reported as “not observed in autophagosomes but in mycobacterial phagosomes”. Moreover, in data set [2], the “localization of EEA1” value is “not observed”.

On to `CN1CCN(CCCN2c3ccccc3Sc3ccc(Cl)cc32)CC1` [Prochlorperazine edisylate, 2-chloro-10-[3-(4-methyl-1-piperazinyl)propyl]-10H-phenothiazine], for which, in data set [3], the “number and integral intensity of LC3 vesicles” value was “increase in both number and integral intensity of LC3 vesicles”; the “toxicity to cells (total cell numbers)” value is “not toxic to cells”. Further, the “acidity of lysosomes” value in data set [4] is on record as “significantly increased the acidity”. The “integral intensity of bacteria over time” value in data set [4] (time course) was “reduction in bacterial intensity”. Besides, in data set [1], the mycobacteria within autophagosomes result is reported as “presence of mycobacteria within autophagosomes” and the “mycobacteria within autophagosomes in the presence of 3-MA” value was “not observed in autophagosomes but in mycobacterial phagosomes”. Also, the “localization of EEA1” value in data set [2] was “not observed”.

`CO[C@H]1/C=C/O[C@@]2(C)Oc3c(C)c(O)c4c(O)c(c(/C=N/N5CCN(C)CC5)c(O)c4c3C2=O)NC(=O)/C(C)=C\C=C\[C@H](C)[C@H](O)[C@@H](C)[C@@H](O)[C@@H](C)[C@H](OC(C)=O)[C@@H]1C` [Rifampin]: the “acidity of lysosomes” value in data set [4] was “did not show enhanced lysosomal acidity”. Besides, in data set [4] (time course), the “co-localisation of mycobacteria to lysosomes” value was “Increased co-localisation of mycobacteria to lysosomes”, the “integral intensity of bacteria over time” value is “Decreased mean integral intensity of bacteria” and the “intensity of lysosomes that contain bacteria” value is “Increased intensity of lysosomes that contain bacteria”.

Values taken from EP2767275A1, “Nortriptyline, haloperidol or prochlorperazine edisylate for use in the treatment of tuberculosis as well as two screening methods” (priority 2013, dated 2014).
